Measurements reported in patent US20110086005A1, “MODULATING INTERSTITIAL PRESSURE AND ONCOLYTIC VIRAL DELIVERY AND DISTRIBUTION” ([…] INC., priority 2008, published 2011).

Tested on: subcutaneous B16 tumors
Assay: Systemic delivery of intravenous reovirus to subcutaneous B16 tumors after PC-61 and/or IL-2 preconditioning (viral titers from tumor lysates)
Format: in vivo, C57B1/6 mice
Conditions: preconditioning before intravenous reovirus 3.75×10^9 TCID50; FIG. 3
Method: C57B1/6 mice were seeded with subcutaneous B16 tumors. Nine days later, mice received an intraperitoneal injection of anti-CD25 antibody PC-61 or a control IgG. Twenty-four hours later, mice were injected intraperitoneally with PBS or with recombinant human IL-2 at a dose of 75,000 units/injection three times a day for 3 d. On the fourth day, a single further injection of IL-2 was given. Two hours after this last injection of IL-2/PBS, mice received an intravenous injection of reovirus (3.75×10^9 TCID50) followed 24 h later by a second similar injection of virus. 72 h later, tumors were explanted and dissociated and viral titers recovered from freeze/thaw lysates of tumors from mice treated as shown were determined (3 mice per group).
Therefore, the therapeutic efficacy of PC-61 or CPA (which mimics the effects of PC-61)+IL-2+reovirus was tested wherein the viral dose of reovirus was reduced to 1×10^8 TCID50 per injection. […] None of the mice treated with the preconditioning regimens and intravenous reovirus developed toxicities. […] Therefore, preconditioning with CPA+IL-2 enhanced the therapy produced by systemic delivery of intravenously delivered reovirus to a level indistinguishable from that induced by PC-61+IL-2.
This is due to IL-2-induced vascular leakage at the tumor site, which increased the ability of systemically delivered virus to localize into established tumors.

IL-2: recombinant human IL-2
localization of intravenously delivered reovirus to subcutaneous established B16 tumors: enhanced the localization
